Measurements from patent publication US9907800B2, “Kinase inhibitors and method of treating cancer” (University Health Network, priority 2010, dated 2018).
Where two headings read alike, the source gives them in different places.

By UniProt entry, the sequences of proteins in these tests, tags left out. Residues count along the entry.
UniProt O00444, 1-391: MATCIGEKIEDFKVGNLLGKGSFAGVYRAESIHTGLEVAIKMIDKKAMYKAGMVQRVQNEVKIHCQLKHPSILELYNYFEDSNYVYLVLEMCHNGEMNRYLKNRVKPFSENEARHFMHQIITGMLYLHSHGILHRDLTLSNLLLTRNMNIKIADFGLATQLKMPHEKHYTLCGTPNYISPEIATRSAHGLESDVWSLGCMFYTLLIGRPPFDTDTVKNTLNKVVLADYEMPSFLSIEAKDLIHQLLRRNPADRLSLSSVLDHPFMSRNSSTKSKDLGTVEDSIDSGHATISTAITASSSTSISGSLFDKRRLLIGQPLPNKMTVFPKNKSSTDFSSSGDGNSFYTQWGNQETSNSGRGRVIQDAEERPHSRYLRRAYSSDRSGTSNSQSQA
UniProt Q96GD4, whole entry: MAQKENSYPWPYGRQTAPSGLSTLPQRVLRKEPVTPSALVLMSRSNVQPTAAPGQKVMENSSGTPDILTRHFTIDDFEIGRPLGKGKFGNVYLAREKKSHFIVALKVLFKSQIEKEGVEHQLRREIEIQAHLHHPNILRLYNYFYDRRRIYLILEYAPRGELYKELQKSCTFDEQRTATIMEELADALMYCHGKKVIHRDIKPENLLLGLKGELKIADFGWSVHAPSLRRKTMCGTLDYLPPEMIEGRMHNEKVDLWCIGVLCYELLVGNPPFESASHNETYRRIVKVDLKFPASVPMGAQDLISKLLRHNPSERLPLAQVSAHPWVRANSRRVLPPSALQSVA

Legend:
human PLK4 = human PLK4 (Homo sapiens (Human), UniProt O00444); experiment: PLK4 inhibition assay (indirect ELISA); assay type: biochemical
Aurora B = Aurora B (Homo sapiens (Human), UniProt Q96GD4); experiment: Aurora B inhibition assay (Z-Lyte); assay type: biochemical; settings: read-out: Aurora B IC50 Ranges

Row | IC50 (human PLK4) | IC50 (Aurora B) | Structure (SMILES) | IC50 (human PLK4; read-out: PLK4 IC50 Ranges)
1 | – | – | COc1ccc2c(c1)[C@]1(C[C@H]1c1ccc3c(-c4ccc(N5CCN(C(C)C)CC5)cc4)n[nH]c3c1)C(=O)N2 [Example A97, (1R,2S)-2-(3-(4-(4-isopropylpiperazin-1-yl)phenyl)-1H-indazol-6-yl)-5′-methoxyspiro[cyclopropane-1,3′-indolin]-2′-one 2,2,2-trifluoroacetate] | < 100 nM
2 | < 100 nM | < 100 nM | COc1ccc2c(c1)[C@]1(C[C@H]1c1ccc3c(-c4ccc(C5CCNCC5)cc4)n[nH]c3c1)C(=O)N2 (relative stereo) [Example A122, (1R*,2S*)-5′-methoxy-2-(3-(4-(piperidin-4-yl)phenyl)-1H-indazol-6-yl)spiro[cyclopropane-1,3′-indolin]-2′-one 2,2,2-trifluoroacetate] | –
